For the assay, the target named is Kappa-type opioid receptor (Homo sapiens, UniProt P41145). The experiment in a line: Displacement of [3H]diprenorphine from human kappa opioid receptor expressed in CHO-K1 cells. For orientation: Displacement assays read how much labelled ligand stays bound in the presence of the test substance.

Sequences of proteins named here, by UniProt entry; tags and fusion partners are left off. A change or cut given only in a name is not applied to a line headed by its entry.
UniProt P41145: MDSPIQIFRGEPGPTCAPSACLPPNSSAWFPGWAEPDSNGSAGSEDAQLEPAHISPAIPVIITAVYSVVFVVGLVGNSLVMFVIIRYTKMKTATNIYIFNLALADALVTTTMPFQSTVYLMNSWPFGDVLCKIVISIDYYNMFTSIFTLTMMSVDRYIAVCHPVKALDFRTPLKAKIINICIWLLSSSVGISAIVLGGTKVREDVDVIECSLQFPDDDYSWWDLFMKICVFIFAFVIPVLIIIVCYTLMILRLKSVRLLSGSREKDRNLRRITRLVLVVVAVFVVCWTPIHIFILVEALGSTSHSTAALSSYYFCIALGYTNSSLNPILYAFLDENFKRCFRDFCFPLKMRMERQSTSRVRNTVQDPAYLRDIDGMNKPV

Molecules are shown by their SMILES. pKi: −log10 of the molar value.

The compound `CN(C(=O)Cc1ccc(Cl)c(Cl)c1)[C@H](CN1CCCC1)c1ccccc1` gave a pKi of 10.36.

The term pKi denotes −log10 of the Ki, conventionally taken in molar units.

The values are drawn from BindingDB's records for 18487043, “Use of receptor chimeras to identify small molecules with high affinity for the dynorphin A binding domain of the kappa opioid receptor” (2008).
